In PubChem BioAssay AID1465 (SRMLSC, 2008):
The list shows a part of the results. Results with a measured potency or affinity are listed apart. Calls of active or inactive are those of the source.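 Rule for the calls: active = fold induction of absorbance versus untreated yeast above a set limit, then at least 30% activation at any dose in follow-up; inconclusive = repeats straddling the limit, or above it without dose testing; inactive = fold induction below the set limit.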

Experiment: enhancers of respiration in Yfh1-depleted yeast, dose response, Friedreich's ataxia, plus single-dose screen (AID 1465)
Conditions: S. cerevisiae Yfh1-off respiration, WST-1 reduction, 72 h; at 50 µM; hits give high values

SMILES | fold induction
CS(=O)(=O)c1cc([N+](=O)[O-])c2no[n+]([O-])c2c1 | inactive: 1.46
O=P(Nc1nccs1)(c1ccccc1)c1nc2ccccc2s1 (stereo not given) | inactive: 1.18
O=P(Nc1nccs1)(Oc1ccccc1)Oc1ccccc1 | inactive: 0.98
CCOP1(=S)c2c(C)nn(CCC#N)c2N=C(c2ccccc2F)N1C (stereo not given) | inactive: 0.87
Nc1ccccc1[As](=O)(O)c1ccccc1 | inactive: 0.92
O=C(O)COc1ccc([As](=O)(O)O)cc1[N+](=O)[O-] | inactive: 1
NC(=O)Nc1ccc([As](=O)(O)O)cc1 | inactive: 1.06
CN(C(=O)Cc1ccc(Cl)c(Cl)c1)[C@H]1CC[C@@]2(CCCO2)C[C@@H]1N1CCCC1 | inactive: 1.02
O=[N+]([O-])c1ccc2c(c1)nnn2O | inactive: 0.97
CCOP1(=S)c2c(C)nn(CCC#N)c2N=C(c2ccc(F)cc2)N1C (stereo not given) | inactive: 0.98
CN(C(=O)Cc1ccccc1)[C@@H]1CC[C@]2(CCCO2)C[C@H]1N1CCCC1 | inactive: 1.02
COc1cc(C(=O)NCC2(N3CCOCC3)CCCCC2)cc(Cl)c1OC(C)C | inactive: 1.04
O=[As](O)(O)c1cccnc1 | inactive: 1.02
O=C(OC1CN2CCC1CC2)c1ccc(Cl)cc1 (stereo not given) | inactive: 1.01
O=[As](O)(c1cccc(O)c1)c1cccc(O)c1 | inactive: 1.11
Cc1cccc(OCC(=O)OC2CN3CCC2CC3)c1 (stereo not given) | inactive: 0.96
CCCOP(=S)(Nc1nc(N)cc(=O)[nH]1)OCCC | inactive: 0.93
Nc1cccc2c([As](=O)(O)O)cccc12 | inactive: 1.06
Cc1ccc(NCCc2c([N+](=O)[O-])cc([N+](=O)[O-])cc2[N+](=O)[O-])cc1 | inactive: 1.24
CCOP(=O)(Nc1cccc2ccccc12)OCC | inactive: 1.08
COc1cc(C2NCCC3(OCCO3)C2(C)C)cc(OC)c1OC (stereo not given) | inactive: 0.88
CN(CCCl)Cc1cc(Cl)c(NC2=NCCN2)c(Cl)c1 | inactive: 1.03
CCOP(=O)(Nc1ccc(C)cn1)OCC | inactive: 1.07
O=P1(Nc2ccccn2)COc2ccccc2OC1 | inactive: 0.99
CC(C)(C)C(=O)NC(Sc1ncccn1)C(Cl)(Cl)Cl (stereo not given) | inactive: 1.02
Clc1n[nH]nc1-c1nn[nH][15n]1 | inactive: 1.02
CC1(CBr)Cn2c(nc3ccccc3c2=O)S1 (stereo not given) | inactive: 1.13

SMILES | fold induction
O=[As](O)(c1ccccc1Br)c1ccccc1Br | inactive: 1.11
CC(C)/C=N\N=C(\N)N[N+](=O)[O-] | inactive: 0.99
CN(C(=O)Cc1ccc(Cl)c(Cl)c1)[C@@H]1CCCC[C@H]1N1CCCC1 | inactive: 1.05
CC1CCC(C(C)C)C(OP(=O)(Nc2ccccn2)c2ccccc2)C1 (stereo not given) | inactive: 1.01
Cc1nn(-c2ccccc2)c2c1P(=O)(N1CCOCC1)N(C)C(c1ccccc1)=N2 (stereo not given) | inactive: 1.01
O=C(/C=C/c1ccccc1)OC1CN2CCC1CC2 (stereo not given) | inactive: 1.01
CN(C)C1(CNC(=O)c2ccc(S(C)(=O)=O)cc2)CCCCC1 | inactive: 0.96
O=P1(Nc2ncccn2)COc2ccccc2OC1 | inactive: 1.05
O=P1(Nc2ccc(Br)cn2)COc2ccccc2OC1 | inactive: 0.98
O=[As](O)(c1cccs1)c1cccs1 | inactive: 1.15
Cc1ccc(OCC(=O)OC2CN3CCC2CC3)cc1 (stereo not given) | inactive: 0.88
Nc1cccc([As](=O)(O)c2ccccc2)c1 | inactive: 1.02
CCOC(=O)Nc1ccc([As](=O)(O)O)c(O)c1 | inactive: 1.03
Cc1cc(SC(NC(=O)c2ccccc2)C(Cl)(Cl)Cl)nc(C(C)C)n1 (stereo not given) | inactive: 0.79
CCOC(=O)Nc1cccc([As](=O)(O)O)c1 | inactive: 1.03
O=[N+]([O-])c1ccc(Nc2ccc(Oc3ccc([N+](=O)[O-])cc3[N+](=O)[O-])cc2)c([N+](=O)[O-])c1 | inactive: 1.03
O=P(Nc1ccccn1)(c1cccc2ccccc12)c1cccc2ccccc12 | inactive: 0.96
Cc1cc(SC(NC=O)C(Cl)(Cl)Cl)ncn1 (stereo not given) | inactive: 0.97
COP1(=S)c2c(C)nn(CCC#N)c2N=C(c2ccc(F)cc2)N1C (stereo not given) | inactive: 1.1
CCOC(=O)c1ccc(NC(=O)C(C)(CCl)SC)cc1 (stereo not given) | inactive: 1.05
CCC(C)N(CC(C)C)C(=S)SC(NC(C)=O)C(Cl)(Cl)Cl (stereo not given) | inactive: 0.93
Cc1cc(=O)[nH]c(N[N+](=O)[O-])n1 | inactive: 1.01
O=C(OC1CN2CCC1CC2)C12CC3CC(CC(C3)C1)C2 (stereo not given) | inactive: 1.03
Cc1c2c(nc3ccccc13)SC(C(Cl)Cl)C2 (stereo not given) | inactive: 0.69
COc1cc(I)ccc1[As](=O)(O)O | inactive: 0.99
COc1ccc2nc(NP(=O)(c3ccccc3)c3ccccc3)sc2c1 | inactive: 1.09
COc1ccc(N/C(=N/P(=O)(N2CCOCC2)N2CCOCC2)N2CCOCC2)cc1 | inactive: 1.04

SMILES | fold induction
C[As](=O)(O)c1cccc(C(=O)O)c1 | inactive: 1.05
O=[As](O)(c1ccc(O)cc1)c1ccccc1O | inactive: 1.02
Cc1ccc2nc3c(c(C)c2c1)CC(C(Cl)Cl)S3 (stereo not given) | inactive: 0.84
Cc1ccc(OP(=O)(Nc2ccc([N+](=O)[O-])cn2)Oc2ccc(C)cc2)cc1 | inactive: 1.16
CC(C)c1ccc(OP(=O)(Nc2ccccn2)Oc2ccccc2F)cc1 (stereo not given) | inactive: 0.99
ClCCSc1nnc(-c2cccnc2)o1 | inactive: 1.04
O=[N+]([O-])c1cc([N+](=O)[O-])c(-c2ccn[nH]2)s1 | inactive: 1.07
CCN(CC)C(=S)SC(NC=O)C(Cl)(Cl)Cl (stereo not given) | inactive: 0.89
CC(C)NC(=O)NP(=O)(Oc1ccccc1)Oc1ccccc1 | inactive: 1.06
O=C(O)c1ccccc1[As](=O)(O)O | inactive: 1.03
CC(=O)Nc1ccc([As](=O)(O)O)cc1 | inactive: 1.06
O=P(Nc1nc2ccc(Cl)cc2s1)(c1ccccc1)c1ccccc1 | inactive: 1.09
Cc1ccc(NP(=O)(Oc2ccccc2F)Oc2ccccc2F)nc1 | inactive: 1.02
CN(C(=O)Cc1ccc(Cl)c(Cl)c1)[C@H]1CCCC[C@@H]1N1CCCC1 | inactive: 1.03
CCOP(=O)(Nc1ccccc1)OCC | inactive: 1.05
Cc1cc(SC(NC(=O)c2ccc(F)cc2)C(Cl)(Cl)Cl)ncn1 (stereo not given) | inactive: 0.9
CCN(N=Nc1nonc1N)c1nonc1N | inactive: 0.87
Nc1cccc2ccc([As](=O)(O)O)cc12 | inactive: 1.07
NC(=O)c1cc([N+](=O)[O-])cc([N+](=O)[O-])c1N | inactive: 1.11
Cc1ccc(N/C(=N/P(=O)(N2CCOCC2)N2CCOCC2)N2CCOCC2)cc1 | inactive: 0.98
Cc1ccc(OP(=O)(Nc2nccs2)Oc2ccc(C)cc2)cc1 | inactive: 1.11
COc1ccccc1OP(=O)(Nc1ccc(C)cn1)Oc1ccccc1OC | inactive: 1.07
Clc1ccc(Cl)c(NC2=NCC(CBr)S2)c1 (stereo not given) | inactive: 1.12
CC(C)CC(=O)NC(Sc1ccc(Cl)cc1)C(Cl)(Cl)Cl (stereo not given) | inactive: 0.84
Cc1c2non([O-])c-2c(C)[n+](=O)[n+]1[O-] | inactive: 1.07
O=C(NC(Sc1ccncn1)C(Cl)(Cl)Cl)c1ccccc1 (stereo not given) | inactive: 1.18
Oc1ccccc1CNc1ccccn1 | inactive: 1.07

SMILES | fold induction
COc1ccc(C2=NCC(CBr)S2)cc1 (stereo not given) | inactive: 1.08
O=[N+]([O-])c1cccc2n[nH]nc12 | inactive: 0.983
CC(=O)N1C2C3N(C(C)=O)C1C1N(C(C)=O)C(C(N1C(C)=O)N3C(C)=O)N2C(C)=O | inactive: 1.07
CCc1nc2c(n1)c1c(non1O)c1c2no[n+]1[O-] | inactive: 1.1
O=[N+]([O-])c1cc([N+](=O)[O-])c(CCNc2ccccc2)c([N+](=O)[O-])c1 | inactive: 1.08
Cc1ccc(NP(=O)(Oc2ccccc2)Oc2ccccc2)nc1 | inactive: 1.06
C[N+]1=C2C=CC=CC=C2SC12C([N+](=O)[O-])=CC([N+](=O)[O-])=C[C-]2[N+](=O)[O-] (stereo not given) | inactive: 1
Nc1ccc([As](=O)(O)c2ccc(N)cc2)cc1 | inactive: 1
CCN(/C(=N/P(=O)(N1CCOCC1)N1CCOCC1)N1CCOCC1)c1ccc(OC)cc1 | inactive: 1.08
CN(C)C(=O)OCCc1n(C)cc[n+]1C | inactive: 1.09
CC(C)=N/N=C(\N)N[N+](=O)[O-] | inactive: 1.07
CC1CCN(C(=O)Oc2c(Cl)cc(Cl)c3cccnc23)CC1 | inactive: 0.85
O=C(Nc1cc([As](=O)(O)O)ccc1O)c1ccccc1 | inactive: 0.98
CC(C)(C)C(=O)NC(Sc1ccncn1)C(Cl)(Cl)Cl (stereo not given) | inactive: 1.11
O=[N+]([O-])c1ncn(CCn2ncnc2[N+](=O)[O-])n1 | inactive: 1.05
O=[N+]([O-])c1cccc(NC2=NCC(CBr)S2)c1 (stereo not given) | inactive: 1.05
O=C(O)CNc1ccc([As](=O)(O)O)cc1 | inactive: 1.03
O=P(Nc1ccccn1)(c1ccc(Br)cc1)c1ccc(Br)cc1 | inactive: 1.07
C[C@H]1OP(=O)(Oc2ccccc2)[C@H](O)[C@H](O)[C@H]1N=[N+]=[N-] (stereo not given in full) | inactive: 1.09
O=P(Nc1nc2ccccc2s1)(c1ccccc1)c1ccccc1 | inactive: 1.08
O=[N+]([O-])c1ncn(CCn2cnc([N+](=O)[O-])n2)n1 | inactive: 1.1
CC(=O)NC(SC(=S)N(C)C)C(Cl)(Cl)Cl (stereo not given) | inactive: 0.99
O=[As](O)(c1ccccc1)c1ccc(O)cc1 | inactive: 1.01
Nc1ccc([As](=O)(O)c2ccc([N+](=O)[O-])cc2)cc1 | inactive: 1.04
